Source: US7169568B2, “Method for screening molecules that exert a neurotrophic effect through activation of neurotrophin receptors” (New York University, priority 2000, dated 2007)

Test system: TrkA receptors
Experiment: TrkA receptor tyrosine phosphorylation in PC12 (615) cells (anti-pan-Trk immunoprecipitation, PY99 anti-phosphotyrosine immunoblot)
Type: cell-based
Protocol: Stably transfected PC12 cells expressing high levels of TrkA (615) were treated with the indicated compounds for 2 hours. The cells were subsequently harvested in lysis buffer as described in the Materials and Methods of Example 1. Lysates were immunoprecipitated with anti-pan Trk rabbit antiserum. Immunocomplexes were analyzed by immunoblotting with anti-phosphotyrosine antibody (PY99).
In FIG. 2A, different concentrations of adenosine were administered to PC12615 cells for 2 hours or NGF (1 ng/ ml) for 10 min. Cells were also treated with CGS21680 at the indicated dose for 2 hours. In FIG. 2B, PC12 cells (615) were treated with adenosine (10 μM) for various times or with 5 ng/ml NGF for 10 min. Phosphorylated TrkA receptors were detected by immunoblot analysis using PY99 anti-phosphotyrosine antibodies. […]
In FIG. 3A, PC12 cells (615) were treated with the A2A agonist CGS 21680 (10 nM) and an A1 agonist CPA (10 nM) for 2 hr. […] Activation of TrkA was assessed by immunoprecipitation and immunoblot analysis using PY99 anti-phosphotyrosine antibody.
In FIG. 7A, different concentrations of PACAP27 were administered to PC12 (615) cells for 2 hours or NGF (5 ng/ml) for 10 min. […] Phosphorylated TrkA receptors were detected by immunoblot analysis using PY99 anti-phosphotyrosine antibodies. […]
Immunoprotection and Immunoblotting. […] Equivalent amounts of protein were analyzed for each condition. […]

CCCN1CCC[C@@H]2Cc3n[nH]cc3C[C@H]21 [quinpirole]
Activation of TrkA receptors (tyrosine phosphorylation): not observed
